Data set [1] is described as follows: clinical. Conditions: male, human, in vivo, t1/2.
The conditions of data set [2]: male, human, in vivo.

As to `COc1cc2nccc(Oc3ccc(NC(=O)C4(C(=O)Nc5ccc(F)cc5)CC4)cc3)c2cc1OC` [XL184, N-(4-{[6,7-bis(methyloxy)quinolin-4-yl]oxy}phenyl)-N′-(4-fluorophenyl)cyclopropane-1,1-dicarboxamide], the half-life (in general, the time in which the quantity being followed falls by half) in data set [1] was 102 h. The compound also registered a kel in data set [2] of 0.00712 h⁻¹.
